Test results from ChEMBL document CHEMBL3627623, “Catecholic amides as potential selective phosphodiesterase 4D inhibitors: Design, synthesis, pharmacological evaluation and structure-activity relationships” (Bioorg Med Chem, 2015).

By UniProt entry, the sequences of proteins in these tests, tags left out. Where a name states a change or a piece, a line headed by the entry shows the natural chain unless it says otherwise.
UniProt Q9HCR9: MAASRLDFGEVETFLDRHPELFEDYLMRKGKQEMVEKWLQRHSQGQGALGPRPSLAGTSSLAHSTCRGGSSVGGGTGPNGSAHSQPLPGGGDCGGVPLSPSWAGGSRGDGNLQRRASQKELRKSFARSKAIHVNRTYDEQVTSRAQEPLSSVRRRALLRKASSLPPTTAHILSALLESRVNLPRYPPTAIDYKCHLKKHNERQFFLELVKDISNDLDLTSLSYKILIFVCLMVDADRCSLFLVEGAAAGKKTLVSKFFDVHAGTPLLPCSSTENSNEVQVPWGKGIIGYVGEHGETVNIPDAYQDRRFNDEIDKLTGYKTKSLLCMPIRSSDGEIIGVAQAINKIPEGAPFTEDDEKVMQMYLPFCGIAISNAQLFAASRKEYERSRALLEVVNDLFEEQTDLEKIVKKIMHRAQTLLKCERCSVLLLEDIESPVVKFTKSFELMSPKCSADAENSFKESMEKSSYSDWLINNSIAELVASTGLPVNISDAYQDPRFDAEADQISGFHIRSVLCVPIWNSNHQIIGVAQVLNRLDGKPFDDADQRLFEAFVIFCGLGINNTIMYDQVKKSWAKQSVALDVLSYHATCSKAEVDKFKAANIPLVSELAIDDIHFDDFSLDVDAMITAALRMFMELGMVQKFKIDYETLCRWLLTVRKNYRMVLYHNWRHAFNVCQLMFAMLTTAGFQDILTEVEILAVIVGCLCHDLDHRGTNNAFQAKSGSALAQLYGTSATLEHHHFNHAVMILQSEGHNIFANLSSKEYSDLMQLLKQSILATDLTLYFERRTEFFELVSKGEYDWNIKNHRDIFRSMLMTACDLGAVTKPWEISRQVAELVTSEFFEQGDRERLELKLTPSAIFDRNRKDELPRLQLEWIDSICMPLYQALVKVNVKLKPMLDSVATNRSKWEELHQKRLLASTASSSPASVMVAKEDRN
UniProt Q13370: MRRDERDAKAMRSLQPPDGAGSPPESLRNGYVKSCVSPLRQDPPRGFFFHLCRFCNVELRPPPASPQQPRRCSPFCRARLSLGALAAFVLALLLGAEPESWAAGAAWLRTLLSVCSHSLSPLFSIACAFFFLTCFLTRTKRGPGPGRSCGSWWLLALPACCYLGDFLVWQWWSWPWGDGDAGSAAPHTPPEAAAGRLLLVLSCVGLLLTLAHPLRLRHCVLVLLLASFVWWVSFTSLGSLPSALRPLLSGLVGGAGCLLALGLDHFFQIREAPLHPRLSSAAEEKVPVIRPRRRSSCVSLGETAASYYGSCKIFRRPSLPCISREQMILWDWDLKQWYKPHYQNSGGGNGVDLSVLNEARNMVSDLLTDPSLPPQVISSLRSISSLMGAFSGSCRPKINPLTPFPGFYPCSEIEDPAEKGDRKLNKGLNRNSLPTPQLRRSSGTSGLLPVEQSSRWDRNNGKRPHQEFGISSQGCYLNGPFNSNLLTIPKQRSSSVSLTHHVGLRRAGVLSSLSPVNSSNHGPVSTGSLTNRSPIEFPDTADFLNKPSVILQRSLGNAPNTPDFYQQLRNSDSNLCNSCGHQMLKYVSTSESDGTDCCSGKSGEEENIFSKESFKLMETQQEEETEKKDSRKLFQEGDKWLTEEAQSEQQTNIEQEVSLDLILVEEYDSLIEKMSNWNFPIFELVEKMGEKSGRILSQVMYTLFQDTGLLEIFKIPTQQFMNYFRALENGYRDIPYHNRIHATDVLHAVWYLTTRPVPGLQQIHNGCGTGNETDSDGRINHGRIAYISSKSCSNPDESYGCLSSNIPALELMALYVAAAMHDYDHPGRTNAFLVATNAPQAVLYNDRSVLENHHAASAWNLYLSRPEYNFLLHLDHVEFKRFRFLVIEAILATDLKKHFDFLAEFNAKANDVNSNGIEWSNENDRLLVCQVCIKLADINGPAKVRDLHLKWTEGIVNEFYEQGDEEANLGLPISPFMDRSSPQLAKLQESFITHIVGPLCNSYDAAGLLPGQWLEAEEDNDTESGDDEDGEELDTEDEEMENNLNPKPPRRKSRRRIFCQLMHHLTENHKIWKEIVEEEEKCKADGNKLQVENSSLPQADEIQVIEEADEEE
UniProt Q13946: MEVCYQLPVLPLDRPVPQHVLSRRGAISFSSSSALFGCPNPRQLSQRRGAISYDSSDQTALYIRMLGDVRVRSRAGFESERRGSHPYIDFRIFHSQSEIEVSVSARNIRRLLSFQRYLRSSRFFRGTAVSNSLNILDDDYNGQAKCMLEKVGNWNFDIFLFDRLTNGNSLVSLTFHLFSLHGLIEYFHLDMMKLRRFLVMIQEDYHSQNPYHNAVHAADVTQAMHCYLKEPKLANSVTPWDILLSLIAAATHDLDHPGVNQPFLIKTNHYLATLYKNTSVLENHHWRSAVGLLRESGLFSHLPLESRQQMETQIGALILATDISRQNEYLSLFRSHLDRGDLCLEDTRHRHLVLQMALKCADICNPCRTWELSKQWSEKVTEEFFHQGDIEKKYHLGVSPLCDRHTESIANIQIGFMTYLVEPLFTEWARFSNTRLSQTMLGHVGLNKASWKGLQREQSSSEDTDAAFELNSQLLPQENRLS

Assays:
[1] = target: Dual 3',5'-cyclic-AMP and -GMP phosphodiesterase 11A (Homo sapiens, UniProt Q9HCR9); experiment: Inhibition of human PDE11A using AM-Cyclic-3',5'-AMP after 60 mins by fluorescence polarization assay
[2] = target: cGMP-inhibited 3',5'-cyclic phosphodiesterase 3B (Homo sapiens, UniProt Q13370); experiment: Inhibition of human PDE3B using AM-Cyclic-3',5'-AMP after 60 mins by fluorescence polarization assay
[3] = target: High affinity 3',5'-cyclic-AMP phosphodiesterase 7A (Homo sapiens, UniProt Q13946); experiment: Inhibition of human PDE7A using AM-Cyclic-3',5'-AMP after 60 mins by fluorescence polarization assay

IC50 [1]: > 100 µM
IC50 [2]: > 100 µM
IC50 [3]: > 100 µM
SMILES: COc1ccc(CNC(=O)c2ccc(OC(F)F)c(OC3CCCC3)c2)cc1
